Experimental findings from patent US6303749A, “Agouti and agouti-related peptide analogs” (Amgen Inc., priority 1999, dated 2001) are described below.

Assay [1] has as its target T1, human melanocortin-4 (MC-4) receptors (Homo sapiens, UniProt P32245).
T1 construct: expressed in transfected cells; membrane fraction used
Type of assay: binding. Particulars: HEK 293 cell membranes; about […] 125I-NDP-α-MSH; 180 minutes at 25 C; read-out: hMC4 IC50 (nM) 125I NDP-MSH.

The target of assay [2] is T2, human melanocortin-3 (MC-3) receptors (Homo sapiens, UniProt P41968).
T2 construct: expressed in transfected cells; membrane fraction used
Briefly: Melanocortin receptor binding assay, 125I-AGRP competition, MC-3. Particulars: Table II; HEK 293 cell membranes; 125I-AGRP 1.10 nM; read-out: hMC3 IC50 (nM) 125I-AGRP.

Assay [3] deals with T2, human melanocortin-3 (MC-3) receptors. Briefly: Melanocortin receptor binding assay, 125I-NDP-alpha-MSH competition, MC-3. Particulars: HEK 293 cell membranes; about […] 125I-NDP-α-MSH; 180 minutes at 25 C; read-out: hMC3 IC50 (nM) 125I NDP-MSH. The method, then:
Human embryonic kidney (HEK) 293 cells stably expressing human melanocortin-3 (MC-3) or human melanocortin-4 (MC-4) receptors were used for ^125 I-[Nle4,dPhe7]α-melanocte stimulating hormone (NDP-α-MSH) and ^125 I-AGRP radioligand binding studies.
For ^125 I-NDP-α-MSH binding, cells were collected in phosphate buffered saline (PBS) and homogenized in Buffer A containing about 25 mM HEPES and about 0.32 M sucrose (pH 7.4), after which the homogenate was spun at 48,000×g for 12 minutes. The resulting pellet, which contained the cell membrane fraction, was resuspended in Buffer B containing about 25 mM HEPES, Modified Eagle's medium (without phenol red), about 0.1 percent bovine serum albumin (BSA), about 0.1 mg/ml soybean trypsin inhibitor (STI) and about 0.1 mg/ml 4-(2-aminoethyl)-benzenesulfonyl fluoride (AEBSF) (pH 7.4), and spun at 48,000×g for 12 minutes. This step was repeated one additional time, and the final pellet was resuspended in Buffer B to a concentration of about 4 mg wet weight of cell membrane per ml.
The binding reaction was initiated by the addition of cell membrane extract (about 50 μl) to wells containing about 0.15 nM ^125 I-NDP-α-MSH (2000 Ci/mmole, Amersham, Arlington Heights, Ill.) and varying concentrations of unlabeled AGRP/ASP peptides. The final assay volume was 100 μl. The reaction mixture was incubated for about 180 minutes at 25 C. and the reaction was terminated by filtration over Unifilter 96 glass fiber filter plates that had been pre-soaked in 0.1 percent polyethylenimine (PEI). Filters were rinsed with ice-cold water, followed by the addition of about 37 μl of Packard MicroScint to each filter well. Radioactivity was quantified using a Packard TopCount. Each concentration of unlabeled AGRP/ASP peptide was tested in triplicate.

Assay [4] is classed as binding, human. As to conditions: Table II; HEK 293 cell membranes; 125I-AGRP 1.10 nM; read-out: hMC3 IC50 (nM) 125I-AGRP.
Assay [5] addresses T3, human melanocortin-4 (MC-4) receptor (human, UniProt P32245). Briefly: displacement of 125I-AGRP, membranes of HEK 293 cells with hMC4 (value column 2; its head prints hMC3). A general note: In a radioligand displacement assay an active substance lowers the binding of a labelled ligand.
The target of assay [6] is T3, human melanocortin-4 (MC-4) receptor. As to the kind of experiment: displacement of 125I-NDP-alpha-MSH, membranes of HEK 293 cells with hMC4 (value column 1).
In assay [7] the target is human melanocortin-3 (MC-3) receptor (human, UniProt P41968). As to the kind of experiment: displacement of 125I-NDP-alpha-MSH, membranes of HEK 293 cells with hMC3 (value column 3).

Several values for one entry are separate records, joined by “and”; a condition that tells them apart may be missing. Equal entries are not always repeated. Bridge positions count the residues as written; N and C are the ends. Ends that are not written are not given here.

Consider “Cys-Abu-Asp-Pro-Abu-Ala-Thr-Abu-Tyr-Cys-Arg-Phe-Phe-Asn-Ala-Phe-Cys-Tyr-Cys-Arg-Lys-Leu [SEQ ID NO:12]”, for which the IC50 in assay [1] was found to be 114 nM; in assay [2], 101 nM; in assay [3], 650 nM; in assay [4] it was 13 nM. Take alpha-MSH [reference compound]: the IC50 in assay [3] is 255 nM.

As for “Ac-Nle-Asp-His-dPhe-Arg-Trp-Lys [MTII, reference compound]”, in assay [3], the half-inhibitory concentration (IC50) was 20 nM. CRFFGSAC (disulfide 1-8 (inferred)) [peptide of SEQ ID NO:7] returned an IC50 in assay [5] of 497 nM.

B1: Mkd5-AGRP (ligand)
chain: APMEGIRRPDQALLPELPGLGLRAPLKKTTAEQAEEDLLQEAQALAEVLDLQDREPRSSRRCVRLHESCLGQQVPCCDPCATCYCRFFNAFCYCRKLGTAMNPCSRT
Turning to B1, in assay [6], the 50% inhibitory concentration (IC50) is 57 nM and 65 nM and 49 nM.

Consider SYSMEHFRWGKPV (ligand) [alpha-MSH], for which, in assay [7], the concentration for half-maximal inhibition (IC50) was 255 nM. CRFFNAFC (disulfide 1-8 (inferred)) [peptide of SEQ ID NO:6] returned a 50% inhibitory concentration (IC50) in assay [5] of 636 nM.

One may read the IC50 as the concentration needed to halve the response being measured.
